The test addresses Voltage-gated inwardly rectifying potassium channel KCNH2 (Homo sapiens, UniProt Q12809). Put plainly: Displacement of [3H]dofetilide from HEK cells expressing hERG voltage dependent IKr potassium channel Kv11.1.

By UniProt entry, the sequences of proteins in these tests, tags left out. Where a name states a change or a piece, a line headed by the entry shows the natural chain unless it says otherwise.
UniProt Q12809: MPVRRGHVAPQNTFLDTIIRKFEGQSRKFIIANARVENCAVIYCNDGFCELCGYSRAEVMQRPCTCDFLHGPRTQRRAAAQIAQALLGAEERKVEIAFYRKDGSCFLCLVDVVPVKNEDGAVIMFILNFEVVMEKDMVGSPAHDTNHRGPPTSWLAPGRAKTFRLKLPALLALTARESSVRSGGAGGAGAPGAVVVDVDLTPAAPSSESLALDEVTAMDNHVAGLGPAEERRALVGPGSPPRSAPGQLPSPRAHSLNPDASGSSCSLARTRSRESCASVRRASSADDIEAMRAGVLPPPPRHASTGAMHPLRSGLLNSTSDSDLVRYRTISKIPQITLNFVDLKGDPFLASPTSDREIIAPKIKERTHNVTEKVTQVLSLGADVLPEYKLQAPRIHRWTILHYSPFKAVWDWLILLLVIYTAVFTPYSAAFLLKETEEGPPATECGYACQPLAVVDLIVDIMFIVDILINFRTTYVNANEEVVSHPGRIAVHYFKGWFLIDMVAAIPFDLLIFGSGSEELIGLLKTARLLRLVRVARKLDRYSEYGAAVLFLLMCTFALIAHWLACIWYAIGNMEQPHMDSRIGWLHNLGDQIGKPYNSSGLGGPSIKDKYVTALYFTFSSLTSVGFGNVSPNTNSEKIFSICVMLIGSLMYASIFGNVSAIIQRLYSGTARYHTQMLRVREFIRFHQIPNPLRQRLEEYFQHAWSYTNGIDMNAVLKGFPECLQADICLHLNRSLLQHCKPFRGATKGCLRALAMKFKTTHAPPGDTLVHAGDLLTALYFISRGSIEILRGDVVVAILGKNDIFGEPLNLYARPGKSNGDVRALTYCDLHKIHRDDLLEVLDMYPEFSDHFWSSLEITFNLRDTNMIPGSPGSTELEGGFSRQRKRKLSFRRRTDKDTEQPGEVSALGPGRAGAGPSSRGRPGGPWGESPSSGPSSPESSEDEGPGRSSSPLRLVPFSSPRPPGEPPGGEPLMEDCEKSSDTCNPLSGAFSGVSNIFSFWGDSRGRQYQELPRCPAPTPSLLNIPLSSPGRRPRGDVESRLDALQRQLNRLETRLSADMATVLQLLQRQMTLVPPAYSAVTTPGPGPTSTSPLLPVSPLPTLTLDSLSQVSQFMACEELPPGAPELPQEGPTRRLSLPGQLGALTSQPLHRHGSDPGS

By Ki is commonly meant a measure of affinity in units of concentration, obtained from inhibition or displacement. The low end stands for higher affinity, the high end for lower affinity. For `c1ccc(-c2[nH]c3ccccc3c2C2CCCNC2)cc1` (stereo unspecified), the affinity corresponds to a Ki of 4.9 µM. The same measure for `CN1CCCCC1c1c(-c2ccccc2)[nH]c2ccccc12` (stereo unspecified): 7 µM; for `F[C@@H]1CCNC[C@H]1c1c(-c2ccccc2)[nH]c2ccccc12`: greater than 1.1 µM. For `COC(=O)c1[nH]c2cc(F)ccc2c1[C@@H]1CNCC[C@H]1F` the value was 8.2 µM. The same measure for `Fc1ccc2c([C@@H]3CNCC[C@H]3F)c(C3CCCCC3)[nH]c2c1`: 5.4 µM. `Fc1ccc2c([C@@H]3CNCC[C@H]3F)c(-c3cccnc3)[nH]c2c1` displayed a Ki of 2.5 µM.

Source of the values: ChEMBL document CHEMBL1134475, “3-(4-Fluoropiperidin-3-yl)-2-phenylindoles as high affinity, selective, and orally bioavailable h5-HT(2A) receptor antagonists” (J Med Chem, 2001).
